For assay [1], the target named is EGFR D19CS (del19/C797S) (Homo sapiens, UniProt P00533, C797S/DEL746-750). Kind of assay: Biochemical EGFR kinase inhibition (Lance Ultra TR-FRET), del19/C797S. The note with it: read-out: EGFR D19CS IC50.
In assay [2] the target is EGFR LRCS (L858R/C797S) (Homo sapiens, UniProt P00533, C797S/L858R). In words: Biochemical EGFR kinase inhibition (Lance Ultra TR-FRET), L858R/C797S. As to conditions: read-out: EGFR LRCS IC50.
Assay [3] deals with FLT3 (Homo sapiens, UniProt P36888). In words: Kinase selectivity (Lance Ultra TR-FRET), FLT3. The note with it: read-out: FLT3 IC50.
In assay [4] the target is JAK2 (Homo sapiens, UniProt O60674). In words: Kinase selectivity (Lance Ultra TR-FRET), JAK2. The note with it: read-out: JAK2 IC50.
Assay [5] deals with EGFR D19TMCS (del19/T790M/C797S) (Homo sapiens, UniProt P00533, C797S/DEL746-750/T790M). In words: Biochemical EGFR kinase inhibition (Lance Ultra TR-FRET), del19/T790M/C797S. As to conditions: read-out: EGFR D19TMCS IC50.
The target of assay [6] is EGFR WT (Homo sapiens, UniProt P00533). In words: Biochemical EGFR kinase inhibition (Lance Ultra TR-FRET), wildtype. The note with it: read-out: EGFR WT IC50; ATP at Km.
Assay [7] has as its target IRAK4 (Homo sapiens, UniProt Q9NWZ3). In words: Kinase selectivity (Lance Ultra TR-FRET), IRAK4. The note with it: read-out: IRAK4 IC50.
Assay [8] concerns the target MAP4K4 (HGK) (Homo sapiens, UniProt O95819). Kind of assay: Kinase selectivity (Lance Ultra TR-FRET), MAP4K4 (HGK). As to conditions: read-out: MAP4K4 (HGK) IC50.
The target in assay [9] is LCK (Homo sapiens, UniProt P06239). In words: Kinase selectivity (Lance Ultra TR-FRET), LCK. The note with it: read-out: LCK IC50.
The target in assay [10] is EGFR LRTMCS (L858R/T790M/C797S) (Homo sapiens, UniProt P00533, C797S/L858R/T790M). In words: Biochemical EGFR kinase inhibition (Lance Ultra TR-FRET), L858R/T790M/C797S. The note with it: read-out: EGFR LRTMCS IC50.

Chains of the proteins cited; added tags and fusions are not shown. Lines headed by an entry give the natural chain unless they say otherwise; changes in a name come on top. Residues count along the entry.
UniProt P00533, 25-1210 C797S/L858R limits assumed: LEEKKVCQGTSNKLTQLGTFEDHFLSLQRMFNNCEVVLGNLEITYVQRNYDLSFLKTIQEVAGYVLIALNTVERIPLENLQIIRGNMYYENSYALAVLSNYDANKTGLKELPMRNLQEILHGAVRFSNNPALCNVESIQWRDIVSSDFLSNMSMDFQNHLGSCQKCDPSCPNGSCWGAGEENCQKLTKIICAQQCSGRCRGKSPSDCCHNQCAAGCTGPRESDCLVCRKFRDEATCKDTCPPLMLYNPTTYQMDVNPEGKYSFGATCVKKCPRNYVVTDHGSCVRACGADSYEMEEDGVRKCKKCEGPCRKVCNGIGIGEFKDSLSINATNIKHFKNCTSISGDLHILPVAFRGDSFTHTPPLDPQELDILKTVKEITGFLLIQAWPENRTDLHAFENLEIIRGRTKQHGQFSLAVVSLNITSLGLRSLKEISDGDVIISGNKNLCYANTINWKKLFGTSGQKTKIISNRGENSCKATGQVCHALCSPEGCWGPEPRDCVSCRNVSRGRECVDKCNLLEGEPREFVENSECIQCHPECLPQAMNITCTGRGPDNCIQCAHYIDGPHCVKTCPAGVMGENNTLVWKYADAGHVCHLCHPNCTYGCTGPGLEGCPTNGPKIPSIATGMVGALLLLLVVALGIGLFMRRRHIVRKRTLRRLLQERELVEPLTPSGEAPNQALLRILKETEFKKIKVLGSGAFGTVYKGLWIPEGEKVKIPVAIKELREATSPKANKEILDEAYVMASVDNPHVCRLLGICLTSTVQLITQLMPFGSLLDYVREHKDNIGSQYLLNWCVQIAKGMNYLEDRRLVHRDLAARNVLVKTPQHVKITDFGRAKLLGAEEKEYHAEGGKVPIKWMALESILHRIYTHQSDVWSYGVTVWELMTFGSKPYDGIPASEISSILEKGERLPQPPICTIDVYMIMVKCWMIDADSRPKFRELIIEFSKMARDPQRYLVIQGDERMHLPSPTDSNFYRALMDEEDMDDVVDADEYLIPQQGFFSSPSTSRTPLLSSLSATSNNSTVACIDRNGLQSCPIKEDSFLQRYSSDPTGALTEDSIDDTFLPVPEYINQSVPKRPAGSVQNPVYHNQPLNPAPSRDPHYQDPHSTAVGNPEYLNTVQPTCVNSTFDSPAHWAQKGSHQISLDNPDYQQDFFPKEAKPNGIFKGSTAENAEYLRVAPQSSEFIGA
UniProt P36888, 27-993 limits assumed: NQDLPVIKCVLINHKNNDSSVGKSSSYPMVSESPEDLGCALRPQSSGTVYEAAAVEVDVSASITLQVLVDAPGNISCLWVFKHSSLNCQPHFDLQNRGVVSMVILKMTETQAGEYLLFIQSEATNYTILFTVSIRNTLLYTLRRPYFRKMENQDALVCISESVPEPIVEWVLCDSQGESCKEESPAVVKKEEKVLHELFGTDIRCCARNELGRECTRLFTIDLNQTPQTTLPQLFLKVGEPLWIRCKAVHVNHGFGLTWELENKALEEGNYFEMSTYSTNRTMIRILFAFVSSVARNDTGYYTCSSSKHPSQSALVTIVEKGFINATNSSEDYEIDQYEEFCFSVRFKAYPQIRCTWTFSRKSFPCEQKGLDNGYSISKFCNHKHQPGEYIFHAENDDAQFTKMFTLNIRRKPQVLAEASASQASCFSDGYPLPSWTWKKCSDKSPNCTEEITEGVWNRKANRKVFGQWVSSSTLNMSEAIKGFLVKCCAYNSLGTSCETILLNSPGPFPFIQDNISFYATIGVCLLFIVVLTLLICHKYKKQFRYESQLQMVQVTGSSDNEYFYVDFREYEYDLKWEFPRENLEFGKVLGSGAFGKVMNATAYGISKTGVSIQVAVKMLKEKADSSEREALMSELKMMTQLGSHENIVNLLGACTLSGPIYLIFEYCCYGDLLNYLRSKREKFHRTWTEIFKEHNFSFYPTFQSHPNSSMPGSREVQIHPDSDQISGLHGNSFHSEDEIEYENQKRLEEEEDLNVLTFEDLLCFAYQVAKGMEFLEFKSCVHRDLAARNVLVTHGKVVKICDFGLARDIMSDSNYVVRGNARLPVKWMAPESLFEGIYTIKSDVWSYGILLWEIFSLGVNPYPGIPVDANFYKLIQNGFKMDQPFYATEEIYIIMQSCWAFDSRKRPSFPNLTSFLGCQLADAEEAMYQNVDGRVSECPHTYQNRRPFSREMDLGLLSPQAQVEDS
UniProt O60674, whole entry: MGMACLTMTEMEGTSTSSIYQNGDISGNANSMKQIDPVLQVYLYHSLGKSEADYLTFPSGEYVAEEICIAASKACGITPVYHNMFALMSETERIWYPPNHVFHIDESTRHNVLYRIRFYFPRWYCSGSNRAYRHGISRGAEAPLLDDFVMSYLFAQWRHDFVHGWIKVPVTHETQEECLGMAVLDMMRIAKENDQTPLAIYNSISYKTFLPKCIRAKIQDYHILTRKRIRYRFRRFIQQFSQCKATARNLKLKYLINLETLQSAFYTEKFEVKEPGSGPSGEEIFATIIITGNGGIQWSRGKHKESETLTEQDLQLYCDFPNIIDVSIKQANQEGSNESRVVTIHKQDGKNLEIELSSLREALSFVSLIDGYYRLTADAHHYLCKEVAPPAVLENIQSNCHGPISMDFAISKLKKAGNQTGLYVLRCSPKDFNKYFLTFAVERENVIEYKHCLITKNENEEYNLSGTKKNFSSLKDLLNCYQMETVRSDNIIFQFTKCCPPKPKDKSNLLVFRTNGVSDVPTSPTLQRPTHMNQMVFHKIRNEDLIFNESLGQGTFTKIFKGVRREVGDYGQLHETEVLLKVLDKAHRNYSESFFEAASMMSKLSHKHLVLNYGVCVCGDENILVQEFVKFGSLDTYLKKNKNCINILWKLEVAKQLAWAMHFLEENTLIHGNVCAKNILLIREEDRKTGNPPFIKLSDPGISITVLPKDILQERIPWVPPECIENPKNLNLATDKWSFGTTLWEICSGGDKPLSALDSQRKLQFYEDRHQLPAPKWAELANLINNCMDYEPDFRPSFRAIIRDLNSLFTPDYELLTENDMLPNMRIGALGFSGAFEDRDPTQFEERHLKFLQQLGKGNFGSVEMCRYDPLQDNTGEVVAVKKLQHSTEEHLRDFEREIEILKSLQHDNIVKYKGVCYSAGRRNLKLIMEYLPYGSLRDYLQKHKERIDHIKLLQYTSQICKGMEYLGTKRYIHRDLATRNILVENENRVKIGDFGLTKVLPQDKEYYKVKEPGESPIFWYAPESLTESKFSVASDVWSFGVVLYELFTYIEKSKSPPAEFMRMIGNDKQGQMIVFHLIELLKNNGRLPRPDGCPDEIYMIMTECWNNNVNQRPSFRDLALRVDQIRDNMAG
UniProt Q9NWZ3, whole entry: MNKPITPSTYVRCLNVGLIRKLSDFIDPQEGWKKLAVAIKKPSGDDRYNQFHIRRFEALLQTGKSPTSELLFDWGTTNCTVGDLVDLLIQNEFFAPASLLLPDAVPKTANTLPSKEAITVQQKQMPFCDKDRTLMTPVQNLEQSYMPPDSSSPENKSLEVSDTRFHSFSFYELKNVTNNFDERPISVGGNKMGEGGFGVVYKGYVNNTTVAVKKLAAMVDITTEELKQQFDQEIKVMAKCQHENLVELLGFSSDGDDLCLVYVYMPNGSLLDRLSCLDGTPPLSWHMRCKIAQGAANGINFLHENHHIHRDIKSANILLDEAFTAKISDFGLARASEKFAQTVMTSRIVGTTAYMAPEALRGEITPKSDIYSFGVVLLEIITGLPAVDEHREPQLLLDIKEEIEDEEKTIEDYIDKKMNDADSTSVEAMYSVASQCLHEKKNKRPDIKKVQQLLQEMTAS
UniProt O95819, whole entry: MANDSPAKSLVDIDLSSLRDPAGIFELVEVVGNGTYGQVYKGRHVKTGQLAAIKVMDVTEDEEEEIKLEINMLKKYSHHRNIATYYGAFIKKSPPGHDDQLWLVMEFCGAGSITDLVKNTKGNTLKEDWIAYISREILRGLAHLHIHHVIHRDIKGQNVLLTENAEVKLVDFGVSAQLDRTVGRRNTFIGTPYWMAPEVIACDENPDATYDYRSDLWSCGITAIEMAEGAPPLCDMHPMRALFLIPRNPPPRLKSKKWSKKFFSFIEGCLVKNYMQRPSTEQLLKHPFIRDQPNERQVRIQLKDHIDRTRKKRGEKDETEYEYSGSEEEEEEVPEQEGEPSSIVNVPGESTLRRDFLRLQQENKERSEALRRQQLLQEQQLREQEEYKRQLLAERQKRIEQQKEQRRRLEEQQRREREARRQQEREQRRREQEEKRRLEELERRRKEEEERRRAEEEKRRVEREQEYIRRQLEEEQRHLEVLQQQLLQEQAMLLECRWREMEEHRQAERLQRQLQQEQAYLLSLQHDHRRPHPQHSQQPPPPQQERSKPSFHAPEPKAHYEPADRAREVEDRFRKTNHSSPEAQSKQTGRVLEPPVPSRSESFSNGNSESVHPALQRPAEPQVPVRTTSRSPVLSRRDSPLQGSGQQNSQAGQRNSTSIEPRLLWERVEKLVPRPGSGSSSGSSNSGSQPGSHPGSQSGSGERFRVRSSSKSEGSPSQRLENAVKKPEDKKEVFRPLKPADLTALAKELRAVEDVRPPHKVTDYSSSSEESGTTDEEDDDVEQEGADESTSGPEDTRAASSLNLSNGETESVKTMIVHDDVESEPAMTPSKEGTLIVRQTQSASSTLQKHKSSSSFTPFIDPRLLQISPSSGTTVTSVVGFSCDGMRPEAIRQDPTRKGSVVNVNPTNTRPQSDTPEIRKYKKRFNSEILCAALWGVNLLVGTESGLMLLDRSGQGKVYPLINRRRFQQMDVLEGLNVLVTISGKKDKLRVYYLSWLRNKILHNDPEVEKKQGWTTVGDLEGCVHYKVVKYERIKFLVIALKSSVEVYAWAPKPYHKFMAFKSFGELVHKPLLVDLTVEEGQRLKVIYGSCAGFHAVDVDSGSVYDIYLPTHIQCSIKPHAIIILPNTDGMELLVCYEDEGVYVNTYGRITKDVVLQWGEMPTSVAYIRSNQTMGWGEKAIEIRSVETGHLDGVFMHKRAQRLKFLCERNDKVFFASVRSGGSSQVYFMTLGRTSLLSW
UniProt P06239, whole entry: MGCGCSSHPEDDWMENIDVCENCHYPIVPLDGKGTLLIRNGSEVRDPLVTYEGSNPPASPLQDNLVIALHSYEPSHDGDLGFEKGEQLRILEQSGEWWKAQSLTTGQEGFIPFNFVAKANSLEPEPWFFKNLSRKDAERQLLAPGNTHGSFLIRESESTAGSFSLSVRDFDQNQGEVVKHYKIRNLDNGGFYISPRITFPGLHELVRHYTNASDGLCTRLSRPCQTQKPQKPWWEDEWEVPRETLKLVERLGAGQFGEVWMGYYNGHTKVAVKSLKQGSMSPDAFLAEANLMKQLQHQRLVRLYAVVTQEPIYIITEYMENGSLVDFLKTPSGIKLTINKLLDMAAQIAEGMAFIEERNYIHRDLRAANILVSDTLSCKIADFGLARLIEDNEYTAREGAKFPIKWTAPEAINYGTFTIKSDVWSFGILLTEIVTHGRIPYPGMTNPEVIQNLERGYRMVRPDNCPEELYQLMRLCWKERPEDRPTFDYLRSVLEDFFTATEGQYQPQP

Read-outs that look alike come from different tables or passages of the source. A value given as a limit tells only on which side of the number the result lay.

Drawing on patent US20260384449A1, “MACROCYCLIC AMINOPYRIDINE COMPOUNDS AS EGFR INHIBITORS” (published 2026), this text covers IC50 for 3 compounds.

Turning to `Cc1nn(C)c2c1-c1nccc(n1)Nc1cc(c(C#Cc3cnn(CC(F)(F)F)c3)cn1)N[C@@H](C)CCO2`, the IC50 was 10 to 100 nM in assay [1] (1 mM ATP); below 10 nM in assay [1] (ATP at Km); 100 to 1000 nM in [2] (1 mM ATP); 10 to 100 nM in [2] (ATP at Km); above 10000 nM in assay [3] (1 mM ATP); 2120 nM in assay [3] (ATP at Km). Besides, the 50% inhibitory concentration (IC50) in assay [4] (1 mM ATP) is above 10000 nM; in assay [4] (ATP at Km) it was above 10000 nM; in assay [5] (1 mM ATP) it was below 10 nM; in assay [5] (ATP at Km), below 10 nM; in assay [6], 10 to 100 nM; in assay [7] (1 mM ATP) it was above 10000 nM. Further, the concentration for half-maximal inhibition (IC50) was above 10000 nM in [7] (ATP at Km); 52 nM in [8] (1 mM ATP); 19.6 nM in assay [8] (ATP at Km); above 10000 nM in assay [9] (1 mM ATP); above 10000 nM in assay [9] (ATP at Km); below 10 nM in assay [10] (1 mM ATP). The IC50 in assay [10] (ATP at Km) is below 10 nM.
Regarding `Cc1nn(C)c2c1-c1nccc(n1)Nc1cc(c(C#Cc3cnn(C)c3)cn1)N[C@@H](C)CCO2`, the IC50 in [1] (1 mM ATP) was below 10 nM; in assay [1] (ATP at Km), below 10 nM; in assay [2] (1 mM ATP), 10 to 100 nM; in assay [2] (ATP at Km), below 10 nM; in [3] (1 mM ATP) it was above 10000 nM; in [3] (ATP at Km), 706 nM. Besides, the IC50 in assay [4] (1 mM ATP) is above 10000 nM; in [4] (ATP at Km), 8820 nM; in assay [5] (1 mM ATP) it was below 10 nM; in assay [5] (ATP at Km), below 10 nM; in assay [6], below 10 nM; in [7] (1 mM ATP) it was above 10000 nM. For the same compound, the concentration for half-maximal inhibition (IC50) in [7] (ATP at Km) was above 10000 nM; in assay [8] (1 mM ATP), 95.1 nM; in [8] (ATP at Km) it was 21.2 nM; in [9] (1 mM ATP), above 10000 nM; in assay [9] (ATP at Km) it was above 10000 nM; in assay [10] (1 mM ATP) it was below 10 nM. Also, the IC50 in assay [10] (ATP at Km) is below 10 nM.
With `Cc1nn(C)c2c1-c1nccc(n1)Nc1cc(c(C#Cc3cnn(C)c3C3CC3)cn1)N[C@@H](C)CCO2`, the IC50 is below 10 nM in assay [1] (1 mM ATP); below 10 nM in [1] (ATP at Km); 100 to 1000 nM in assay [2] (1 mM ATP); 10 to 100 nM in assay [2] (ATP at Km); above 10000 nM in assay [3] (1 mM ATP); above 10000 nM in [3] (ATP at Km). In addition, the half-maximal inhibitory concentration (IC50) in assay [4] (1 mM ATP) was above 10000 nM; in assay [4] (ATP at Km), above 10000 nM; in assay [5] (1 mM ATP) it was below 10 nM; in assay [5] (ATP at Km) it was below 10 nM; in [6], below 10 nM; in [7] (1 mM ATP), above 10000 nM. For the same compound, the IC50 in [7] (ATP at Km) is above 10000 nM; in assay [8] (1 mM ATP), 37.4 nM; in [8] (ATP at Km), 12.2 nM; in assay [9] (1 mM ATP), above 10000 nM; in [9] (ATP at Km), above 10000 nM; in assay [10] (1 mM ATP), 10 to 100 nM. The IC50 in assay [10] (ATP at Km) is below 10 nM.
